In publication PMC7723054:
The list shows a part of the results.

T1: LIN28A (human?, UniProt Q9H9Z2 1-209)
T1 sequence: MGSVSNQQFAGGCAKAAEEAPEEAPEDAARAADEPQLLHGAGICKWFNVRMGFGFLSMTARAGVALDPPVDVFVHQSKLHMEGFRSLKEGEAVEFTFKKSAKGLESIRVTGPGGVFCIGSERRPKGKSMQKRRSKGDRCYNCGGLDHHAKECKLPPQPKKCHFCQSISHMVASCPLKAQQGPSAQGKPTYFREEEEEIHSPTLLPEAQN

T2: CIRBP (Homo sapiens, UniProt Q14011 1-172)
T2 sequence: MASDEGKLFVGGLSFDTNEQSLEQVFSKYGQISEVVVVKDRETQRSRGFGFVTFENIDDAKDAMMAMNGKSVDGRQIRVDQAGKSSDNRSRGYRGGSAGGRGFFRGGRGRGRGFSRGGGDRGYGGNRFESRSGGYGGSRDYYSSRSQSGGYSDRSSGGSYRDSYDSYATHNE

T3: DHX36 (Homo sapiens, UniProt Q9H2U1 1-1008)
T3 sequence: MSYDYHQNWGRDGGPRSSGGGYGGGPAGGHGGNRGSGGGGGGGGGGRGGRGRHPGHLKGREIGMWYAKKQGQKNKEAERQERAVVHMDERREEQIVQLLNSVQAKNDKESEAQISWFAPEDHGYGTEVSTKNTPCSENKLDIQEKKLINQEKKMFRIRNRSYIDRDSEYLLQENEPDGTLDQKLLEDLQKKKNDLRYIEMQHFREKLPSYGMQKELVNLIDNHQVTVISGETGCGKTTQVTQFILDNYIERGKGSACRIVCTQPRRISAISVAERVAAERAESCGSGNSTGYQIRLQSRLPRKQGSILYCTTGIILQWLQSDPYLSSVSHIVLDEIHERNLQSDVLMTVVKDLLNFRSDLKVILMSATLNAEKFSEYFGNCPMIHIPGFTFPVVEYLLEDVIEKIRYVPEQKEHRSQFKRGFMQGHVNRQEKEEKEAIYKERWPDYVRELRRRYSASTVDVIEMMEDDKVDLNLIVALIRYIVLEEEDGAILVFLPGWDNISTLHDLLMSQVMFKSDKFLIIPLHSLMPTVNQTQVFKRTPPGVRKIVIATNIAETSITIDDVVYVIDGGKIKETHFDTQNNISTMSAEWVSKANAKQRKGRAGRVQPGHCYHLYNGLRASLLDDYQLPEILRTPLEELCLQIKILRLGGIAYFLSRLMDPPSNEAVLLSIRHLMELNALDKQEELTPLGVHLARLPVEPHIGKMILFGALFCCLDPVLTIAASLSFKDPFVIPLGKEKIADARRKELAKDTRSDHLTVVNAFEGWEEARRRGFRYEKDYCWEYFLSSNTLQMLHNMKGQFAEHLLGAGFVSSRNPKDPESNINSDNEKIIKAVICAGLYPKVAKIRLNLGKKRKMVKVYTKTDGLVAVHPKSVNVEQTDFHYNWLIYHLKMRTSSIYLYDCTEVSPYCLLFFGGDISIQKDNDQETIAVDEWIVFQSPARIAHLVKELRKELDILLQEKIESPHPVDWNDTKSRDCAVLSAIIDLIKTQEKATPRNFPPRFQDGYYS

B1: hsa-mir-6880 (structured_RNA)
RNA: GGGACAAGCUGACGUAAGAAUCCGGAUAGGUGUACGAAGUUUCAGCAGGGCAGCUCCCAUGACUGCCUGACCGCGCUGAAGCUUCGUGCAC
B2: hsa-mir-3922 (structured_RNA)
RNA: GGGAACUGGUCUGCUCCGGAUGCUUAAAGGUGUACGAAGUUUCAGCCAGAGGUCCCACAGCAGGGCUGGAAAGCACACCUGUGGGACUUCUGGCUGAAGCUUCGUGCAC
B3: hsa-mir-6847 (structured_RNA)
RNA: GGGCACAAUCUCAGGCCGAUCCCAUGAGGGUGUACGAAGUUUCAGCGAGCUGGAAGGAGUGGGCCUGGCUCGCUGAAGCUUCGUGCAC
B4: hsa-mir-6848 (structured_RNA)
RNA: GGGCGAAACCGGCUAAAGGAUUGCUACCGGUGUACGAAGUUUCAGCCCAUGGUGUGCUCUGAUCCCCCUGUGGGCUGAAGCUUCGUGCAC
B5: hsa-mir-6842 (structured_RNA)
RNA: GGGACGGGUCAAACGAAAUAUUCAAGAGGGUGUACGAAGUUUCAGCCCAAGGCUCUGGGGUCUCACCCUUGGGCUGAAGCUUCGUGCAC
B6: hsa-mir-4441 (structured_RNA)
RNA: GGGAGGACUCGAUACGCUUACUGUUCACGGUGUACGAAGUUUCAGCGUGUACAGGGAGGAGACUGUACGUGAGAGAUAGUCAGAUCCGCAUGUUAGAGCAGAGUCUCCUUCGUGUACAGGCUGAAGCUUCGUGCAC
B7: hsa-mir-3147 (structured_RNA)
RNA: GGGAAUUUGACGUAGAGGCCAGACUUGGGGUGUACGAAGUUUCAGCGUGACGCCGCGAAGUGCACGCUGAAGCUUCGUGCAC
B8: hsa-mir-142 (structured_RNA)
RNA: GGGAACAUGCCCAUGGCCUAUAGUCAGCGGUGUACGAAGUUUCAGCUACUAACAGCACUGGAGGGUGUAGCUGAAGCUUCGUGCAC
B9: PARIS_ID26 (structured_RNA)
RNA: GGGAGCUCCAUCGAACCCCUUAUUUCACGGUGUACGAAGUUUCAGCGUGUCUGCUGGUGAUGCCCAACCCAGUGCUCUGCACCCAGGUCACGCUGAAGCUUCGUGCAC
B10: hsa-mir-4792 (structured_RNA)
RNA: GGGAAAGGGACUGCUUUAGCACCUACGAGGUGUACGAAGUUUCAGCUGGCCUGGCAGUGCGUCGGAAGAACAGGGCGGGUGGGGCCGCUGAAGCUUCGUGCAC
B11: hsa-mir-4747 (structured_RNA)
RNA: GGGAAGCUGAUUGUCCAAGCCUCUGAUCGGUGUACGAAGUUUCAGCUCUUAGCACGGGGUCUAAGGGCUGAAGCUUCGUGCAC
B12: hsa-mir-6840 (structured_RNA)
RNA: GGGAACACGGCCAAAGGUGCGCAUUUACGGUGUACGAAGUUUCAGCAGAUCCCCUGUUAGAGACGGGCCGCUGAAGCUUCGUGCAC
B13: hsa-mir-3611 (structured_RNA)
RNA: GGGAAAUGCGAUCAUUCGCCUGUCGCACGGUGUACGAAGUUUCAGCACAAUUAUGAAAGAAAAGAAAUUGUGCUGAAGCUUCGUGCAC
B14: hsa-mir-300 (structured_RNA)
RNA: GGGAGGUGGCCCCAACACCCCUAAUAUGGGUGUACGAAGUUUCAGCCACGCAUUUGCUUUACUUGCAAUGAUUAUAGCUGAAGCUUCGUGCAC
B15: hsa-mir-6820 (structured_RNA)
RNA: GGGAACACAGCUAAGGAGAAACGCAAGAGGUGUACGAAGUUUCAGCGUCACCAGCCCUCAUGUACUUGUGACGCUGAAGCUUCGUGCAC
B16: hsa-mir-6076 (structured_RNA)
RNA: GGGGAACGAGGAAAGAAUGCAUUGUAGCGGUGUACGAAGUUUCAGCGUGGAGGUAGGCGAGAGUAAUAUAAUUUCUCCAGGAGAACAUCUGAGAGGGGAAGUUGCUUUCCUGCCCUGGCCCUUUCACGCUGAAGCUUCGUGCAC
B17: hsa-mir-6787 (structured_RNA)
RNA: GGGAAUACUUCGCGGAUUUGCAAGACUGGGUGUACGAAGUUUCAGCGGCUGCAGGCCCGGCCCCUCUCGCUGAAGCUUCGUGCAC
B18: hsa-mir-6778 (structured_RNA)
RNA: GGGAGCGUCUGUAGGCGUAUUUCAAGCAGGUGUACGAAGUUUCAGCGGCAGGUGUGGUUGGAGGAAGCAGCCUGAACCUGCCGCUGAAGCUUCGUGCAC
B19: hsa-mir-6888 (structured_RNA)
RNA: GGGAGUAUCGCACGUAUAAACACCGGAAGGUGUACGAAGUUUCAGCAGAUCUGUCUCUGAUUGUUUCCAAGAUCUGCUGAAGCUUCGUGCAC
B20: hsa-mir-4685 (structured_RNA)
RNA: GGGAAUUACACUACCGACGCUAAUGGGUGGUGUACGAAGUUUCAGCGCAAGGUUGUUGGUGAUAUGGCUUCCUCUCGCUGAAGCUUCGUGCAC
B21: hsa-mir-3156-3 (structured_RNA)
RNA: GGGACAAGGGUAAGCAUGAGCAUCGUCUGGUGUACGAAGUUUCAGCGACACUUUCACUAUAUAUAGUGGCGCUGAAGCUUCGUGCAC
B22: hsa-mir-4744 (structured_RNA)
RNA: GGGAAGAGACGAGGAGGAAAGAUUUACGGGUGUACGAAGUUUCAGCUAUGACCAGGCCAUAGUAAACAUCAUAGCUGAAGCUUCGUGCAC

Key:
Test in all cases: FOREST: bead pull-down of RNA structure library v1, barcode microarray; U1A/LIN28A: 20 mM HEPES pH 7.5, 80 mM KCl, 20 mM NaCl, 10% glycerol, 2 mM DTT, 0.1 ug/uL BSA, 4 C; BG4/CIRBP/DHX36: 10 mM Tris-HCl pH 7.5, 100 mM KCl (or LiCl),; high values mean tight binding
U1A = U1A (Homo sapiens, UniProt P09012)
LIN28A = target: T1, LIN28A
CIRBP = target: T2, CIRBP
DHX36 = target: T3, DHX36

| Binder | binding signal (U1A) [z-score] | binding signal (LIN28A) [z-score] | binding signal (CIRBP) [z-score] | binding signal (DHX36) [z-score] |
| --- | --- | --- | --- | --- |
| B1 | 0.701 | 0.0527 | -1.27 | -0.825 |
| B2 | 0.681 | -0.419 | 0.905 | 0.574 |
| B3 | 0.694 | 1.71 | -0.404 | 0.769 |
| B4 | 0.687 | 1.06 | -0.576 | -0.0874 |
| B5 | 0.678 | 0.0967 | -0.317 | -0.0425 |
| B6 | 0.689 | 1.76 | 1.49 | 0.359 |
| B7 | 0.679 | 0.442 | 0.984 | -0.0192 |
| B8 | 2.23 | 0.272 | -0.388 | -0.362 |
| B9 | 0.699 | 0.0523 | -0.89 | 0.0289 |
| B10 | 0.692 | 0.791 | 1.19 | 1.42 |
| B11 | 0.676 | -1.2 | -0.633 | -0.445 |
| B12 | 0.692 | -0.589 | -0.626 | -0.453 |
| B13 | 0.701 | -0.32 | -0.446 | -0.293 |
| B14 | 0.669 | -0.877 | -2.15 | -1.55 |
| B15 | 2.24 | -2.02 | -1.21 | -0.862 |
| B16 | 0.669 | 0.936 | -1.94 | 2.27 |
| B17 | 0.683 | -0.0573 | 1.04 | 0.258 |
| B18 | 0.662 | -0.599 | 0.349 | 2.13 |
| B19 | 0.677 | -0.119 | 0.155 | 0.968 |
| B20 | 0.681 | 0.916 | 0.296 | -0.202 |
| B21 | 0.66 | -0.581 | -0.0634 | -0.571 |
| B22 | 0.691 | 0.882 | 0.53 | 0.304 |
